# Results reported in patent US20150258192A1, “COMPOSITIONS AND METHODS FOR PREVENTING OR TREATING CHRONIC LUNG ALLOGRAFT DYSFUNCTION (CLAD) AND IDIOPATHIC PULMONARY FIBROSIS (IPF)” (priority 2014, published 2015).
# Chains of the proteins cited; added tags and fusions are not shown. Lines headed by an entry give the natural chain unless they say otherwise; changes in a name come on top. Residues count along the entry.
# UniProt P06213, 1005-1310 limits assumed: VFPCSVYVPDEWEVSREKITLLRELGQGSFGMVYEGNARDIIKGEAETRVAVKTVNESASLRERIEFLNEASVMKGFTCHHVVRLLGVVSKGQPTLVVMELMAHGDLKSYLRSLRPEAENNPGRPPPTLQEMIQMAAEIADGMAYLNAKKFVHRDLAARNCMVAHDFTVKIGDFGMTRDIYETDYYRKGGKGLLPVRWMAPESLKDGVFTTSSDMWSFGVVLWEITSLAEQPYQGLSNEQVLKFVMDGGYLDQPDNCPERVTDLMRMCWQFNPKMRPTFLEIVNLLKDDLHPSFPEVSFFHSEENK
# UniProt Q04759: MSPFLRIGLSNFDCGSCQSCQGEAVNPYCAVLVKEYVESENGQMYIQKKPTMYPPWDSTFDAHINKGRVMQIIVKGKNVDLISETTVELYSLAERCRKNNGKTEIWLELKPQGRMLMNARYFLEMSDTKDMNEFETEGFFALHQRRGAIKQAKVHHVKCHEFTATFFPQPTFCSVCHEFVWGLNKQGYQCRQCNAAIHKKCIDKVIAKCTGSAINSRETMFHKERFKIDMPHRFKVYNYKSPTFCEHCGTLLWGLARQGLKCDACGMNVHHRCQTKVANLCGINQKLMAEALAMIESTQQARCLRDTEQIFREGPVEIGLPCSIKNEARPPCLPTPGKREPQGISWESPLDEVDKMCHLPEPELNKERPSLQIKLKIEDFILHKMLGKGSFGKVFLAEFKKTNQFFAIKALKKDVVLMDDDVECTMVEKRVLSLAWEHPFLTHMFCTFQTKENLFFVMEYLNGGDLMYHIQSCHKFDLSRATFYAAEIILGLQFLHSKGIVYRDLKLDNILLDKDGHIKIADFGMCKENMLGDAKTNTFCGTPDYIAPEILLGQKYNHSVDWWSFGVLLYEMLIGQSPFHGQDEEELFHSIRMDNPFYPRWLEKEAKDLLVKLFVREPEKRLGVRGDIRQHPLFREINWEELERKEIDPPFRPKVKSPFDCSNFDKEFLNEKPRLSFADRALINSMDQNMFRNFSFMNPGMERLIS
# UniProt O43318, 1-303 limits assumed: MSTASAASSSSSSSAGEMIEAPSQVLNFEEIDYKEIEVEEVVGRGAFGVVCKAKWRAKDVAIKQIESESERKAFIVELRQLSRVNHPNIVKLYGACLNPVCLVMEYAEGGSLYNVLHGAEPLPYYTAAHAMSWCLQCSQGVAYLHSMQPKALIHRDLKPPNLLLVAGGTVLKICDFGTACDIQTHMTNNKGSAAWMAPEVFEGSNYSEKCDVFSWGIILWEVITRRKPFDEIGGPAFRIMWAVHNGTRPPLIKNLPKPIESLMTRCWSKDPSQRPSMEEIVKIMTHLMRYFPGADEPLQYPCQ
# UniProt P54753, 34-998: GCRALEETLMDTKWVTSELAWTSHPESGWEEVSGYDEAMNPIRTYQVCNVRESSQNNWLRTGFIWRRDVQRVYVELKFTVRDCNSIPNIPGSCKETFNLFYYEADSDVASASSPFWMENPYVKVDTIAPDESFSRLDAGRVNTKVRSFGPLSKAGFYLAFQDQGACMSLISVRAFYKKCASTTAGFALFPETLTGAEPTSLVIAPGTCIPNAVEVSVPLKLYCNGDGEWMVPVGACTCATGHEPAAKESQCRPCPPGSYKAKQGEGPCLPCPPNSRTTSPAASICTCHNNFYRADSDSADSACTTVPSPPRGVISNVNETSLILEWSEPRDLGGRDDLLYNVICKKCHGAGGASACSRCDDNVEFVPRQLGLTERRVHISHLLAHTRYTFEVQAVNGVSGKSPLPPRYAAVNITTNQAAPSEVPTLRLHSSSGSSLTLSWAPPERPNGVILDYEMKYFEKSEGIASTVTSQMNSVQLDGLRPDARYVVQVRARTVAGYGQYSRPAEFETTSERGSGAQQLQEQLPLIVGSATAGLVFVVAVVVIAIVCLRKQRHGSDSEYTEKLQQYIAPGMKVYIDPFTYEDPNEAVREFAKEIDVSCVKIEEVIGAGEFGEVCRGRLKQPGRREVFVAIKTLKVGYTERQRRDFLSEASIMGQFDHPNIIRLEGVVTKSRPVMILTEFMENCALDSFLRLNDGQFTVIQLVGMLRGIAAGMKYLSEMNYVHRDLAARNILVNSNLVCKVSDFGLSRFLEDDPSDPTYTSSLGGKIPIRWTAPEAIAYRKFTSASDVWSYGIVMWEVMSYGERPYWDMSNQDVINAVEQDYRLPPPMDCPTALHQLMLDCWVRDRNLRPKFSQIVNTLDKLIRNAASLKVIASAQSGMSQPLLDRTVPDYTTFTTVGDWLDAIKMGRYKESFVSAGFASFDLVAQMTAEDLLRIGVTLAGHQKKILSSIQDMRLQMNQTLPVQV
# UniProt Q15831: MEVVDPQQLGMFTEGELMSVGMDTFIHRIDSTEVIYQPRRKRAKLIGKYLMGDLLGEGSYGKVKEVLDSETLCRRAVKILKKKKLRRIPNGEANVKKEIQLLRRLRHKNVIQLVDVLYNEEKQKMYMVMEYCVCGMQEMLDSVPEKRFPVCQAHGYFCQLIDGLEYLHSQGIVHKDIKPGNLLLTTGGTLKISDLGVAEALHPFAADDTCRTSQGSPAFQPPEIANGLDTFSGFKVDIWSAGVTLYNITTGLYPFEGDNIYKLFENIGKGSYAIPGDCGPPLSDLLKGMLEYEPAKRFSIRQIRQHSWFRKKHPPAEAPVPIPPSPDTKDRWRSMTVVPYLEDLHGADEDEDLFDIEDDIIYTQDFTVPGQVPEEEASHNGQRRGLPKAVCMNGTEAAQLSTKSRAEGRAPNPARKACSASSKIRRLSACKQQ
# UniProt P16234, 24-1089: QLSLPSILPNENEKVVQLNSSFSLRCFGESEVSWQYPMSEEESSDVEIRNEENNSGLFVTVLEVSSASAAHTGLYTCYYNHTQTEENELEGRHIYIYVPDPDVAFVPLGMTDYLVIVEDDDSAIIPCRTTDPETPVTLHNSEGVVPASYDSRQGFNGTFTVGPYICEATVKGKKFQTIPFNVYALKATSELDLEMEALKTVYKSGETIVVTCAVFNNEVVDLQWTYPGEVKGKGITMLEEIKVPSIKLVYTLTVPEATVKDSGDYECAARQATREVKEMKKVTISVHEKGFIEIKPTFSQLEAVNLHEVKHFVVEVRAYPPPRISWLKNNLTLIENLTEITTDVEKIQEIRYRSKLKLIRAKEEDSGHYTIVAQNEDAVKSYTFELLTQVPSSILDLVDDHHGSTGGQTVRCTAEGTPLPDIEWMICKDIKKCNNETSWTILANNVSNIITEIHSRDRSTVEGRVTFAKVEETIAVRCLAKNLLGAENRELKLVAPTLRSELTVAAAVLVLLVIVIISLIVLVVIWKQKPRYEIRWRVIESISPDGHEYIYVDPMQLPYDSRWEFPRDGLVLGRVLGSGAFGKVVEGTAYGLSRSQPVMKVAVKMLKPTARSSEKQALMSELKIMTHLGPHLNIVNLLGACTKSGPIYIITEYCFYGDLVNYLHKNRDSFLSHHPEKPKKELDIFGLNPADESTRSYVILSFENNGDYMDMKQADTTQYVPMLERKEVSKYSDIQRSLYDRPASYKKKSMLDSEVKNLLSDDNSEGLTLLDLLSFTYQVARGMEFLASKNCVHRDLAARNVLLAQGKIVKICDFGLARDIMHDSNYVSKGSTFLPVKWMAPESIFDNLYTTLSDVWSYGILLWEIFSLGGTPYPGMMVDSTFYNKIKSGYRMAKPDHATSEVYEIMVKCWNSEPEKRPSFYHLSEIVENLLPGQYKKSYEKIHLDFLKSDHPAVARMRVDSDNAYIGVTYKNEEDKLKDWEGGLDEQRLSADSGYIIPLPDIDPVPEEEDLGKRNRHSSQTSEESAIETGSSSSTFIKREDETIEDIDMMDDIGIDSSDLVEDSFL
# UniProt P54646: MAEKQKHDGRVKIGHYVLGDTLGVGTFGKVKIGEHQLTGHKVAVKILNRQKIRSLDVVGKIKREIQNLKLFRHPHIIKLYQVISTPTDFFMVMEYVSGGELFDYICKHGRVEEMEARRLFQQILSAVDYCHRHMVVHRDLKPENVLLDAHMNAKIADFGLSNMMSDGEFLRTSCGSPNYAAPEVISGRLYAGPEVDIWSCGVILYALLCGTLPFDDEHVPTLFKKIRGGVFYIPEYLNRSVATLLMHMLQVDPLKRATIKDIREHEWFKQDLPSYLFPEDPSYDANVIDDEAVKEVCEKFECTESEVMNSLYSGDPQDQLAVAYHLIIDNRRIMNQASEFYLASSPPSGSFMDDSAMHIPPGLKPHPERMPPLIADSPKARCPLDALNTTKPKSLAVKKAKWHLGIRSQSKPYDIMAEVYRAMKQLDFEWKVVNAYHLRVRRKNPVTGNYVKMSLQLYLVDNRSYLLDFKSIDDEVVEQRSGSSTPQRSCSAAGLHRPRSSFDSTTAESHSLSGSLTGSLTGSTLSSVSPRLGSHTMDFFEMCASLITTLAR
# UniProt Q05655: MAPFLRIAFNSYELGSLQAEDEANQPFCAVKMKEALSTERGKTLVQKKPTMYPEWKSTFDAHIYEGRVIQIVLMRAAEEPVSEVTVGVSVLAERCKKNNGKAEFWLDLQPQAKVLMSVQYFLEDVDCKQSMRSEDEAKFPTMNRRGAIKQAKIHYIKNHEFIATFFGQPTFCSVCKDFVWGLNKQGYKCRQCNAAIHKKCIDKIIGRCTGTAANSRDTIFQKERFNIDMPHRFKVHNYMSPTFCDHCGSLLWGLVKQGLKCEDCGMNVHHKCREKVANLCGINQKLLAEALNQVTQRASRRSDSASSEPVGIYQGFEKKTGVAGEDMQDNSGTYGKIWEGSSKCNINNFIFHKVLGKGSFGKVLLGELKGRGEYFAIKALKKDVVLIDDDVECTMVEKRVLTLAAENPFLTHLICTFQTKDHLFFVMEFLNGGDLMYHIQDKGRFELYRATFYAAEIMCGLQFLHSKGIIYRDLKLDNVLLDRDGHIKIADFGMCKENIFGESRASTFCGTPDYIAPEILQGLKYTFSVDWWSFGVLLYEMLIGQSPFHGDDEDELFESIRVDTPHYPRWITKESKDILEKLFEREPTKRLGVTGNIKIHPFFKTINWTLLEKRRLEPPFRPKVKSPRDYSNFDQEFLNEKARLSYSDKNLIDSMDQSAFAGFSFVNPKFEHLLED
# UniProt P42684, whole entry: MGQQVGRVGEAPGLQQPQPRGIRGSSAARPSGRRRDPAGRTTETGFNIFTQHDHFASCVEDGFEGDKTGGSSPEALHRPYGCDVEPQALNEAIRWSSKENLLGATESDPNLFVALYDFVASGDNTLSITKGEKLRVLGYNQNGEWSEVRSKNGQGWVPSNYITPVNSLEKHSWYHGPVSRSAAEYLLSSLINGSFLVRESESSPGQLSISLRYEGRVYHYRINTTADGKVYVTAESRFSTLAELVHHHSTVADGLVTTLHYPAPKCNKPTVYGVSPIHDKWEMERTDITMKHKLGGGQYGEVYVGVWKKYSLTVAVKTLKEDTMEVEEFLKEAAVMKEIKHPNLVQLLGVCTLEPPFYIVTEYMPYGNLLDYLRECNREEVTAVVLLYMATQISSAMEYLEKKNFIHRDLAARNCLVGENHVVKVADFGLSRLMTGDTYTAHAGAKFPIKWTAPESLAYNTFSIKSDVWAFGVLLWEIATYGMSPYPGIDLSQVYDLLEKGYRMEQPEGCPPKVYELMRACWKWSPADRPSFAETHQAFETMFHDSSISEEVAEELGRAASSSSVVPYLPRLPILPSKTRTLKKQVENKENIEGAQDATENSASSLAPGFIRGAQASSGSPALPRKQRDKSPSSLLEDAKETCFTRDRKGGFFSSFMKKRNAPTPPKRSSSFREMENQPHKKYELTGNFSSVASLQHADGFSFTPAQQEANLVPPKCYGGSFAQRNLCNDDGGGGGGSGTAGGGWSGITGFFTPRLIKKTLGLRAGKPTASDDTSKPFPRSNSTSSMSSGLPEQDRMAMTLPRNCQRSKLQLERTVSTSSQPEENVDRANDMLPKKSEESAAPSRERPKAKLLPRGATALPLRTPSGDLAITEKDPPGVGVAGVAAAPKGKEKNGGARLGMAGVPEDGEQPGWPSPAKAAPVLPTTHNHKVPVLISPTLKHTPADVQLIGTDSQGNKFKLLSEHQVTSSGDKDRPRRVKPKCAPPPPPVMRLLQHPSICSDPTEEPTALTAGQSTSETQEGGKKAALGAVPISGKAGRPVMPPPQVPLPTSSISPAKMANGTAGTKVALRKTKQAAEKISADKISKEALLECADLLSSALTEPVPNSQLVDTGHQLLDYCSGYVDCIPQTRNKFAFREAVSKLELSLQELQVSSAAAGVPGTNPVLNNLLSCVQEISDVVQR
# UniProt Q8TDX7: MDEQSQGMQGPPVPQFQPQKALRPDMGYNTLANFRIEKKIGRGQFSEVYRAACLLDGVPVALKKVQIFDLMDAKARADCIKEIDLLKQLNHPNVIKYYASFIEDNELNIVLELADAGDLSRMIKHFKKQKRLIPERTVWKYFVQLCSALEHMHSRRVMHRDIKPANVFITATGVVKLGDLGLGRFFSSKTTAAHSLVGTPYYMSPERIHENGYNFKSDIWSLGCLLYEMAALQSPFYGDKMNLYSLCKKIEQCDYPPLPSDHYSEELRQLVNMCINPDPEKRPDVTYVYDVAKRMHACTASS
# What was measured:
# Experiment in all cases: Kinase Profiling Assay
# Assay type in all cases: biochemical
# Conditions in all cases: peptide 100 μM
# [1] = target: T1, IR(h), activated (Homo sapiens, UniProt P06213)
# T1 construct: purchased Millipore
# How it was run: (§1)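 Radiometric filter-binding format: cationic substrate takes up labeled phosphate from ATP unless the inhibitor peptide blocks the kinase. Substrate bound to an anionic filter, scintillation-counted, normalized to 100% activity control. Duplicates; part of a 266-kinase selectivity panel for MK2 peptides.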
# [2] = target: T2, TAO3(h) (Homo sapiens, UniProt Q9H2K8)
# T2 construct: purchased Millipore
# T2 sequence (Q9H2K8 1-898): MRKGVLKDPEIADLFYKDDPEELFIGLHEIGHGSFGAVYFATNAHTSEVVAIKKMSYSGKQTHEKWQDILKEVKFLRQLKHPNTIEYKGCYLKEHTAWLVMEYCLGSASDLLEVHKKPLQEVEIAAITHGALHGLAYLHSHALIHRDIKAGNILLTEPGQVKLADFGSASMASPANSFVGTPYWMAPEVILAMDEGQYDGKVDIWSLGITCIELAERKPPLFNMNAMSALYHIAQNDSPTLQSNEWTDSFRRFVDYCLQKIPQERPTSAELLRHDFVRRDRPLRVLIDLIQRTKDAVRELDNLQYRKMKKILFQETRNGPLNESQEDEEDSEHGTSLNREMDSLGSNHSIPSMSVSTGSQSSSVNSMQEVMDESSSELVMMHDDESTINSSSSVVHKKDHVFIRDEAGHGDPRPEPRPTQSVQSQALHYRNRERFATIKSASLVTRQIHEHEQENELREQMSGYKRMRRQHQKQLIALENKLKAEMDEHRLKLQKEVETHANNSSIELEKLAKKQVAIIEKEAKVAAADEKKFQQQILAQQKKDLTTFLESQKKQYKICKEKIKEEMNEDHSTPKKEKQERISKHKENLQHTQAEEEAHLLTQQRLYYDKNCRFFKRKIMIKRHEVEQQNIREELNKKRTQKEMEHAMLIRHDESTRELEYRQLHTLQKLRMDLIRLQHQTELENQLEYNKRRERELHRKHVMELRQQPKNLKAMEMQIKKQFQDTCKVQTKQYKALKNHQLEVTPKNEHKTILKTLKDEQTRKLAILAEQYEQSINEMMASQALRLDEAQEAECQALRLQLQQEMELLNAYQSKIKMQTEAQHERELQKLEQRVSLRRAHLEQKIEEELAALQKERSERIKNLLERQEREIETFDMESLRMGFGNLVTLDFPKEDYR
# How it was run: as §1
# [3] = target: T3, SGK(h) (Homo sapiens, UniProt O00141)
# T3 construct: purchased Millipore
# T3 sequence (O00141 1-431): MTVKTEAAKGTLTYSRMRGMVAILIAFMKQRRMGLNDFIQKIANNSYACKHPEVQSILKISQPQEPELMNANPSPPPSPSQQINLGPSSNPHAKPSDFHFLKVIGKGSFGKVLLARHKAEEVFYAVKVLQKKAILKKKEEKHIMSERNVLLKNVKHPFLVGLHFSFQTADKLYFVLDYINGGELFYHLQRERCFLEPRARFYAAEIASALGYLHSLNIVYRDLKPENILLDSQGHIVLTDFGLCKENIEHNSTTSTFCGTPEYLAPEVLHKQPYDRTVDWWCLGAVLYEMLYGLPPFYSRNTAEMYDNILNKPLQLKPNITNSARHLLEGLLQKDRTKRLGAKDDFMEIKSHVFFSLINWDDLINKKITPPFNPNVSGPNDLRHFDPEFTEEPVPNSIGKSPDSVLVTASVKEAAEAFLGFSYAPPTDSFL
# How it was run: as §1
# [4] = target: PKCθ(h) (Homo sapiens, UniProt Q04759)
# How it was run: as §1
# [5] = target: Fgr(h) (Homo sapiens, UniProt P09769)
# How it was run: as §1
# [6] = target: T4, TAK1(h) (Homo sapiens, UniProt O43318)
# T4 construct: purchased Millipore
# How it was run: as §1
# [7] = target: EphB3(h) (Homo sapiens, UniProt P54753)
# How it was run: as §1
# [8] = target: T5, LKB1(h) (Homo sapiens, UniProt Q15831)
# T5 construct: purchased Millipore
# How it was run: as §1
# [9] = target: CK1γ3(h) (Homo sapiens, UniProt Q9Y6M4)
# How it was run: as §1
# [10] = target: EGFR(h) (Homo sapiens, UniProt P00533)
# How it was run: as §1
# [11] = target: PDGFRα(h) (Homo sapiens, UniProt P16234)
# How it was run: as §1
# [12] = target: T6, Src(T341M)(h) (Homo sapiens, UniProt P12931, T341M)
# T6 construct: purchased Millipore
# How it was run: as §1
# [13] = target: DMPK(h) (Homo sapiens, UniProt Q09013)
# How it was run: as §1
# [14] = target: T7, IRAK4(h) (Homo sapiens, UniProt Q9NWZ3)
# T7 construct: purchased Millipore
# How it was run: as §1
# [15] = target: AMPKα2(h) (Homo sapiens, UniProt P54646)
# How it was run: as §1
# [16] = target: PKCδ(h) (Homo sapiens, UniProt Q05655)
# How it was run: as §1
# [17] = target: T8, Lck(h) activated (Homo sapiens, UniProt P06239)
# T8 construct: purchased Millipore
# How it was run: as §1
# [18] = target: Arg(h) (Homo sapiens, UniProt P42684)
# How it was run: as §1
# [19] = target: RIPK2(h) (Homo sapiens, UniProt O43353)
# How it was run: as §1
# [20] = target: T9, NEK7(h) (Homo sapiens, UniProt Q8TDX7)
# T9 construct: purchased Millipore
# How it was run: as §1
# [21] = target: T10, IR(h) (Homo sapiens, UniProt P06213)
# T10 construct: purchased Millipore
# How it was run: as §1
compound,measurement,setting,value
YARAAARQARAKALNRQLGVA (Mammal) [MMI-0200],% activity,[1],105%
same,% activity,[2],102%
same,% activity,[3],115%
CC(C)C[C@H](NC(=O)[C@H](C)NC(=O)[C@H](CCCCN)NC(=O)[C@H](C)NC(=O)[C@H](CCCNC(=N)N)NC(=O)[C@H](C)NC(=O)[C@H](CCC(N)=O)NC(=O)[C@H](CCCNC(=N)N)NC(=O)[C@H](C)NC(=O)[C@H](C)NC(=O)[C@H](C)NC(=O)[C@H](CCCNC(=N)N)NC(=O)[C@H](C)NC(=O)[C@@H](N)Cc1ccc(O)cc1)C(=O)N[C@@H](C)C(=O)N[C@@H](CCCNC(=N)N)C(=O)N[C@@H](CCC(N)=O)C(=O)N[C@@H](CC(C)C)C(=O)NCC(=O)N[C@H](C(=O)N[C@@H](C)C(=O)N[C@@H](C)C(=O)O)C(C)C [MMI-0100],% activity,[4],102%
same,% activity,[5],54%
same,% activity,[6],116%
same,% activity,[7],109%
same,% activity,[8],111%
same,% activity,[9],105%
same,% activity,[10],95%
same,% activity,[11],104%
same,% activity,[12],98%
same,% activity,[13],60%
same,% activity,[14],100%
same,% activity,[15],121%
same,% activity,[16],100%
same,% activity,[17],106%
same,% activity,[18],89%
same,% activity,[19],92%
same,% activity,[20],97%
same,% activity,[21],112%
